The numbers were not newly measured in patent publication US11464753B2, “Composition for treatment of neurodegenerative disease” (WINNING THE FIGHT INC., priority 2013, dated 2022), which cites them from elsewhere.

The data set relates to ALS patients. The following applies: background statement; cited from earlier work.

As for `Nc1nc2ccc(OC(F)(F)F)cc2s1` [Riluzole], the effect on survival entry is “limited effect on survival”.
